What all share (assay): cell-based or functional assay
Experiment [1] concerns the target Wild-type Human MCH1R Short Form (human), Q99705.
In experiment [2] the target is human short form/mouse species chimeric MCH1R-linker-EGFP (human/mouse chimera).
In experiment [3] the target is Wild-type Human MCH1R Long Form (human).
The target in experiment [4] is human long form/mouse species chimeric MCH1R-linker-EGFP (human/mouse chimera).
Experiment [5] deals with mouse MCH1R/EGFP direct fusion (mouse).
Experiment [6] concerns the target mouse MCH1R-linker-EGFP (mouse).
Experiment [7] addresses Wild-type Human MCH1R Short Form (human), Q99705. The source holds these as a separate data set.
For experiment [8] the target is unchanged. This is another data set of the same source.

Chains of the proteins cited; added tags and fusions are not shown. Lines headed by an entry give the natural chain unless they say otherwise; changes in a name come on top. Chains listed by the source or under a name are the forms on record and can include a tag or linker.
UniProt P20382: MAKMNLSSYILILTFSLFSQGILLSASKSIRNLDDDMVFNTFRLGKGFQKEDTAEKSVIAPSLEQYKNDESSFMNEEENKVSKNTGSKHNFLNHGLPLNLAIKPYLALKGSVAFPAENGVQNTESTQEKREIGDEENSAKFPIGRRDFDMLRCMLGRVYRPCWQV
Wild-type Human MCH1R Long Form (human), one chain, as listed by the source limits assumed: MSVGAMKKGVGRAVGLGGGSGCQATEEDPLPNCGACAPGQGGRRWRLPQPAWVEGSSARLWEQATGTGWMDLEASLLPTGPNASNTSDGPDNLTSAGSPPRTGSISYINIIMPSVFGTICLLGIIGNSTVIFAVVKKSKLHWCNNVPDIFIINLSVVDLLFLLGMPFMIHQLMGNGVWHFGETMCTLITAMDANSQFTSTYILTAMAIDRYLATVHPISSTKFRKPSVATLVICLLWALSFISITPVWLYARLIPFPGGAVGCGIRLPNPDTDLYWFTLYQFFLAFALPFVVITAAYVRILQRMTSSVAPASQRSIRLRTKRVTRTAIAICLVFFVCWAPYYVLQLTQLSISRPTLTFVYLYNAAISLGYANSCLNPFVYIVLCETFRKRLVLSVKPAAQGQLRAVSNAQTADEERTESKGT

Where two headings read alike, the source gives them in different places.

In the case of DFDMLRCMLGRVYRPCWQV (peptide, UniProt P20382 147-165, looked up, modifications not checked) [human melanin-concentrating hormone (MCH), P20382 147-165], the EC50 (nM), cAMP production, transiently transfected CHO cells came to 1.03 nM in experiment [1]; 1.56 nM in experiment [2]; 1.51 nM in experiment [3]; 11.6 nM in experiment [4]; 0.819 nM in experiment [5]; 3.2 nM in experiment [6]. Besides, the EC50 (nM), cAMP production, transiently transfected CHO cells in experiment [7] turned out to be 2.17 nM. Also, the EC50 (nM), functional activity in transiently transfected HEK293 cells (aequorin bioluminescence) in experiment [1] was found to be 22.3 nM; in experiment [2] it was 19.5 nM; in experiment [3], 197 nM; in experiment [4], 218 nM. Further, the EC50, cAMP flashplate assay, stable CHO cell clone in experiment [1] worked out at 0.128 nM; in experiment [8] it was 0.114 nM.

The values above are taken from patent publication US20030092902A1.
